This is an account of results in ChEMBL document CHEMBL3421591, “Improved Synthesis of Biotinol-5'-AMP: Implications for Antibacterial Discovery” (ACS Med Chem Lett, 2015).

Chains of the proteins cited; added tags and fusions are not shown.
UniProt P06709, whole entry: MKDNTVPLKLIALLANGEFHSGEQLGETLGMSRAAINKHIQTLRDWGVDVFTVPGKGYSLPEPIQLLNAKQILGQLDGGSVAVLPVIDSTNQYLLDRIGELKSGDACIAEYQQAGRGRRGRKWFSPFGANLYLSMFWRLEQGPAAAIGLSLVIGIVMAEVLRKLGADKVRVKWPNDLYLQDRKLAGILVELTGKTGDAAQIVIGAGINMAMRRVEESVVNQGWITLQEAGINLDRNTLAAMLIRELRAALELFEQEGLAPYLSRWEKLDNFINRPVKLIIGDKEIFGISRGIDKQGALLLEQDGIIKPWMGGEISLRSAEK

In assay [1] the target is Bifunctional ligase/repressor BirA (Escherichia coli (strain K12), UniProt P06709). Nature of the assay: Inhibition of Escherichia coli recombinant BPL using 3H-biotin as substrate after 10 mins by liquid scintillation counting analysis. As to conditions: read-out: Ki(app).
The target in the next assay is T1, Biotin--protein ligase (Homo sapiens, UniProt P50747).
T1 sequence (P50747 whole entry): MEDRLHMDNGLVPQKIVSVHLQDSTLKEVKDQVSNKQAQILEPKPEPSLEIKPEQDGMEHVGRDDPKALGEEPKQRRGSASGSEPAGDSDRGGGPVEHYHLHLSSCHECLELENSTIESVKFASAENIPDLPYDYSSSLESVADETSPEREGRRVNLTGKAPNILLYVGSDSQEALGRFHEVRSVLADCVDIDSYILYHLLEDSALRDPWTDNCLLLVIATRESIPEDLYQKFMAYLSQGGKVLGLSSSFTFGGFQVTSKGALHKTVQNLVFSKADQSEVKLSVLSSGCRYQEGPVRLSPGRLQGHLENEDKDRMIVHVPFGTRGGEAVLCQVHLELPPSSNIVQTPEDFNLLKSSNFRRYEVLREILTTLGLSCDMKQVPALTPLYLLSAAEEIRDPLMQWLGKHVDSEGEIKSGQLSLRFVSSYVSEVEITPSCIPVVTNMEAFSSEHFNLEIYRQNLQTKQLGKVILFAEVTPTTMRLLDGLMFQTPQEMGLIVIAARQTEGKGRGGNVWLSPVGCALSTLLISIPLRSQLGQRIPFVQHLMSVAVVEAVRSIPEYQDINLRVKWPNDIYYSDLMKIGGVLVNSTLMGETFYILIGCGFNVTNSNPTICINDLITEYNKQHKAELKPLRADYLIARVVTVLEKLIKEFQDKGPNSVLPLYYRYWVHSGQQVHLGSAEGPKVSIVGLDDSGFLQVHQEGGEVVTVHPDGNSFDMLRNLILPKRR
Nature of the assay: Inhibition of human recombinant BPL using 3H-biotin as substrate after 10 mins by liquid scintillation counting analysis. As to conditions: read-out: Ki(app).

pKi: −log10 of the molar value.

As usually defined, the pKi is the Ki on a negative log10 scale, so that one unit is a factor of ten.

For the molecule `Nc1ncnc2c1ncn2[C@@H]1O[C@H](COP(=O)(O)OCCCCC[C@@H]2SC[C@@H]3NC(=O)N[C@@H]32)[C@@H](O)[C@H]1O`, the pKi was 7.06 in assay [1] and 6.74 on Biotin--protein ligase.
